Broadly, the IC50 is the concentration that inhibits the measured activity by half.

Results on 1 compound are retold here after BindingDB's records for doi:10.1021/acs.jmedchem.6b01270 (University of Tennessee Health Science Center, 2017).

A short description of this experiment: Inhibition of ATX (unknown origin) expressed in human A2058 cells assessed as inhibition of LPC-induced cell invasion after 20 hrs by calcein-AM dye based matrigel-mediated Boyden chamber assay.

For the compound `O=C(Nc1cc(F)c(F)c(F)c1)c1cc(S(=O)(=O)N2CCOCC2)c(Cl)cc1Cl`, the half-maximal inhibitory concentration (IC50) is 1480 nM.
